# Target: Prothrombin (Homo sapiens, UniProt P00734)
# Experiment: Inhibitory concentration against thrombin.
structure (smiles),measurement,value
N=C(N)NCCC[C@H](NC(=O)[C@@H]1CCN2CC[C@@](N)(Cc3ccccc3)CN12)C(=O)C(=O)NCc1ccccc1,Ki,0.073 nM

# Source: ChEMBL document CHEMBL1132633, “Secondary structure peptide mimetics: design, synthesis, and evaluation of beta-strand mimetic thrombin inhibitors” (J Med Chem, 1999)
